# From ChEMBL document CHEMBL2163257 (J Med Chem, 2012)
# Chains of the proteins cited; added tags and fusions are not shown. Lines headed by an entry give the natural chain unless they say otherwise; changes in a name come on top.
# UniProt P35367, whole entry: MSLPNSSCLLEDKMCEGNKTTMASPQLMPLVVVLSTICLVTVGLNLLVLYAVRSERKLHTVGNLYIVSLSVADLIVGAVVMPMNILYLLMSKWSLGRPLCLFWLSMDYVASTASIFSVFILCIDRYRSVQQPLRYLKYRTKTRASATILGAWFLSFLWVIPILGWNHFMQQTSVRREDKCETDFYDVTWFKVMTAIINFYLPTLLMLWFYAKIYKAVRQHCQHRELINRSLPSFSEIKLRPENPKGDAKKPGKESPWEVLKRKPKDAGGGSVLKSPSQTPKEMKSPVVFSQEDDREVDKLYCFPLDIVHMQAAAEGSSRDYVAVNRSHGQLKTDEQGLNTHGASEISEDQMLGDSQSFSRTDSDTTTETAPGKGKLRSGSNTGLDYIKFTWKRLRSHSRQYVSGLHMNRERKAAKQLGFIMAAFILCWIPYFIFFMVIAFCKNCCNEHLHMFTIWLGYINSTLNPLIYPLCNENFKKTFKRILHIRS
# UniProt Q9Y5N1: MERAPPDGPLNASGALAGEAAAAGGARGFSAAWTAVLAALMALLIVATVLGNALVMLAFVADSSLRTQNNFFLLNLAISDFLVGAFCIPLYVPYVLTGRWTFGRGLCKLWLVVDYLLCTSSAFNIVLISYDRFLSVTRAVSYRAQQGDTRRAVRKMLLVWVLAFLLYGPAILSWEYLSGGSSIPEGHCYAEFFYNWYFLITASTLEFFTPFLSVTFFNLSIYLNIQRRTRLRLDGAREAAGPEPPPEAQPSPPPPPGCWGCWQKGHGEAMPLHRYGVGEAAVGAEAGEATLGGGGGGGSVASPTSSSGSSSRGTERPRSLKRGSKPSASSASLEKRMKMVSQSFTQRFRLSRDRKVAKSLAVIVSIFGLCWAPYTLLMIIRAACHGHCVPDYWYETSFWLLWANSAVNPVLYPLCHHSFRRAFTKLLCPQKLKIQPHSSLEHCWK
# UniProt P25021, whole entry: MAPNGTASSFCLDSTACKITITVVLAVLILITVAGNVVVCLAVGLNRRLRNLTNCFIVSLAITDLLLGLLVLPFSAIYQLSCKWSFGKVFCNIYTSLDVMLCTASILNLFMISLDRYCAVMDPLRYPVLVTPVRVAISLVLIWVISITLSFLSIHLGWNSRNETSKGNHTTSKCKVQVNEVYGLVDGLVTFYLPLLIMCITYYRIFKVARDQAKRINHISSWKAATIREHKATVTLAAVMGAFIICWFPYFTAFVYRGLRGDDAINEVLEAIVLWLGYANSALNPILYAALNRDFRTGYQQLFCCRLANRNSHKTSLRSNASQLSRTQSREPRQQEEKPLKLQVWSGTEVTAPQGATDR
# UniProt P47747, whole entry: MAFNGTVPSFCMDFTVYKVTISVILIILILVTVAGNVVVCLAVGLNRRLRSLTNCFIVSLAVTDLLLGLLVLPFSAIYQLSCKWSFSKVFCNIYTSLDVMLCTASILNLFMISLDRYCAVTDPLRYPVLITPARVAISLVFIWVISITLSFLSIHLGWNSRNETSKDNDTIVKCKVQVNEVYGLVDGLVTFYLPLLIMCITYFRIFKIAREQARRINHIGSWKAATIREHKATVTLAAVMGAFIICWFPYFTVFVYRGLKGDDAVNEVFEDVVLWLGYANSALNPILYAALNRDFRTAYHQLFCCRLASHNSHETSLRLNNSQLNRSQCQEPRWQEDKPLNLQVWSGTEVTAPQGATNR
# The source made the active and inactive calls. No cut-off for these calls is given here.
# Assays:
# [1] = target: Histamine H1 receptor (Homo sapiens) (UniProt P35367); assay: Antagonist activity at human H1R-RGS4 expressed in Sf9 cells by steady state GTPase activity assay; format: functional
# How it was run: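 Sf9 membranes (5–20 μg protein) co-expressing human H1R with RGS4. Reaction with 1.0 mM MgCl2, 100 μM ATP, 100 nM GTP, AppNHp, creatine phosphate/kinase, 0.2% BSA, 50 mM Tris-HCl pH 7.4. Histamine 100 nM with test ligand 10 nM–1 mM. [γ-32P/33P]GTP added, 20 min at 25 °C. Charcoal stop, released Pi counted. pKB from sigmoidal nonlinear fits.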
# Histamine H3 receptor = Histamine H3 receptor (Homo sapiens, UniProt Q9Y5N1); conditions: Sf9
# Histamine H2 receptor [2] = target: T1, Histamine H2 receptor (Homo sapiens, UniProt P25021); conditions: Sf9, 0.1 nM
# Histamine H2 receptor [3] = target: T1, Histamine H2 receptor; conditions: Sf9
# Histamine H2 receptor [4] = target: Histamine H2 receptor (Cavia porcellus, UniProt P47747); assay: Agonist activity at guinea pig H2R-Gsalphas expressed in Sf9 cells at 0.1 nM to 10 uM by steady state GTPase activity assay; format: functional
# How it was run: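 Steady-state GTPase assay with Sf9 membranes (5–20 µg protein) expressing hH2R- or gpH2R-Gsαs, in 50 mM Tris-HCl pH 7.4. Mix: 1.0 mM MgCl2, 100 µM EDTA, 100 nM GTP, 100 µM AppNHp, 5 mM creatine phosphate, creatine kinase, 0.2% BSA, ligand 0.1 nM–10 µM. After 2 min at 25 °C, [γ-32P]GTP or [γ-33P]GTP was added and reacted 20 min at 25 °C. Charcoal stop; released Pi counted. Two to six experiments, duplicate.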
# [5] = target: Histamine H2 receptor (Cavia porcellus) (UniProt P47747); assay: Potency index, ratio of pEC50 for compound to pEC50 for histamine at guinea pig H2R-Gsalphas expressed in Sf9 cells at 0.1 nM to 10 uM by steady state GTPase activity assay
# How it was run: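 Sf9 membranes expressing human or guinea pig H2R-Gsαs fusion protein, 1.0 mM MgCl2, ATP, 100 nM GTP, AppNHp, creatine phosphate/kinase, BSA, Tris pH 7.4. Agonists 0.1 nM–10 μM, [γ-32P/33P]GTP hydrolysis 20 min at 25 °C, Pi counted. Curves fit by sigmoidal nonlinear regression. Potency given relative to histamine (set to 1.0). Two to six independent experiments in duplicate.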
Compound,pKb [1],pKb (Histamine H3 receptor),other results
Cc1nc(N)sc1CCCN/C(N)=N/C(=O)CCCCCCC(=O)/N=C(\N)NCCCc1sc(N)nc1C,< 6,< 5,
N/C(=N\C(=O)CCCCC(=O)/N=C(\N)NCCCc1c[nH]cn1)NCCCc1c[nH]cn1,6.13,,
N/C(=N\C(=O)CCCCCCCCC(=O)/N=C(\N)NCCCc1c[nH]cn1)NCCCc1c[nH]cn1,6.32,,
Cc1nc(N)sc1CCCN/C(N)=N/C(=O)CCCCCCCCC(=O)/N=C(\N)NCCCc1c[nH]cn1,6.27,,
Cc1nc(N)sc1CCCN/C(N)=N/C(=O)CCCCCCCCCCCCCCC(=O)/N=C(\N)NCCCc1sc(N)nc1C,< 6,< 6,
N/C(=N\C(=O)CCCCCCCCCCCCCCCCCCCCC(=O)/N=C(\N)NCCCc1cnc(N)s1)NCCCc1cnc(N)s1,,,pEC50 (Histamine H2 receptor [2]): inactive; pKb (Histamine H2 receptor [3]): 5.77
Cc1nc(N)sc1CCCN/C(N)=N/C(=O)CCCCC(=O)/N=C(\N)NCCCc1sc(N)nc1C,< 6,< 5,
Cc1nc(N)sc1CCCN/C(N)=N/C(=O)CCCCCCCCCCCCCCCCCCCCC(=O)/N=C(\N)NCCCc1sc(N)nc1C,,,pEC50 (Histamine H2 receptor [2]): inactive; pKb (Histamine H2 receptor [3]): 6.11
Cc1nc(N)sc1CCCNC(=N)NC(=O)CCCCCCCCCCCCCCC(=O)NC(=N)NCCCc1sc(N)nc1C,,,EC50 (Histamine H2 receptor [4]): 0.0347 µM
Cc1nc(N)sc1CCCN/C(N)=N/C(=O)CCCCCCCCC(=O)/N=C(\N)NCCCc1sc(N)nc1C,6.01,< 5,
N=C(NCCCc1cnc[nH]1)NC(=O)CCCCCCCCCCCCCCCCCCCCC(=O)NC(N)=NCCCc1cnc[nH]1,,,EC50 (Histamine H2 receptor [4]): 0.0347 µM
N/C(=N\C(=O)CCCCCCC(=O)/N=C(\N)NCCCc1cnc(N)s1)NCCCc1cnc(N)s1,< 6,6.36,
Cc1nc(N)sc1CCCN/C(N)=N/C(=O)CCCCCCCCC(=O)/N=C(\N)NCCCc1cnc(N)s1,< 6,< 5,
N/C(=N\C(=O)CCCCCCCCC(=O)/N=C(\N)NCCCc1cnc(N)s1)NCCCc1cnc(N)s1,< 6,< 5,
N/C(=N\C(=O)CCCCCCCCCCCCCCCCCCCCC(=O)/N=C(\N)NCCCc1c[nH]cn1)NCCCc1c[nH]cn1,< 6,,Ratio [5]: 34.7; pEC50 (Histamine H2 receptor [2]): inactive; pKb (Histamine H2 receptor [3]): 6.57
Cc1nc(N)sc1CCCN=C(N)NC(=O)CCCCCCCCC(=O)NC(N)=NCCCc1cnc(N)s1,,,EC50 (Histamine H2 receptor [4]): 0.00347 µM
N/C(=N\C(=O)CCCCCCCCCCCCCCC(=O)/N=C(\N)NCCCc1c[nH]cn1)NCCCc1c[nH]cn1,< 6,,
